25 compounds from PubChem BioAssay AID862 (The Scripps Research Institute Molecular Screening Center, 2007) can be followed below.

Structures are written as SMILES. The list shows a part of the results, in another mix than the full data. Active and inactive are the calls of the source.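 Rule for the calls: active = inhibition above the mean inhibition across all screened compounds plus 3 SD (cut at about 44% in these data); inactive = the rest.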

The term inhibition denotes the relative decrease from the control value, in per cent.

This test in a line: blockers of STAT3 transcriptional signaling – U3A cells, luciferase, luminescence, MLSCN library, primary screen (AID 862).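 Note: 0% = DMSO only wells and 100% = 100 µM nifuroxazide control wells.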 The following applies: IL-6 STAT3-luciferase reporter, at 5.5 µM, active compounds read high, host cell line lacks STAT1. A general note: A reporter such as luciferase makes a cellular process visible.
Consider `CC(C)(C)OC(=O)N1CCC(Nc2ccccc2)CC1`, for which the inhibition was inactive: -1.5%.
For `CCOc1ncccc1C(=O)NCC1(N2CCOCC2)CCCCC1` the value was inactive: -4.9%; for `COc1cc(OC)cc(C(=O)NCC2(N3CCOCC3)CCCCC2)c1`, inactive: 3.3%.
For `CCC(CO)(C(=O)OC1CN2CCC1CC2)c1ccccc1` (stereo not given) the value was inactive: 0.7%; for `CN(C)c1ccc(C(=O)NCC2(N3CCCCC3)CCCCC2)cc1`, inactive: -0.8%; for `CCN1CCC(Nc2cccc(F)c2)CC1`, inactive: 7.9%.
Regarding `N#Cc1ccc(C(=O)NCC2(N3CCCCC3)CCCCC2)cc1`, the inhibition is inactive: 13.5%.
For `c1ccc(CN2CCC(Nc3ccccc3)CC2)cc1` the value was inactive: -0.1%; for `COc1ccc(C(=O)NCC2(N3CCOCC3)CCCCC2)cc1OC`, inactive: -1.5%; for `O=C(OC1CN2CCC1CC2)C1c2ccccc2C=Cc2ccccc21` (stereo not given), inactive: -2%.
For `N/C(=N\O)c1c(N)no[n+]1[O-]` the value was inactive: 12.3%; for `CC(C)c1ccc(NC2CCN(C(=O)OC(C)(C)C)CC2)cc1`, inactive: -17.3%.
For `CN(C)c1cccc(C(=O)NCC2(N3CCCCC3)CCCCC2)c1` the value was inactive: -4.5%; for `COc1ccc(CN(CCCl)CCCl)cc1Cl`, inactive: 1.6%.
Turning to `CN1CCC(Nc2cccc(F)c2)CC1`, the inhibition is inactive: -0.3%.
For `N#CC1(Nc2ccccc2)CCN(CCc2ccccc2)CC1` the value was inactive: 2.1%; for `O=C(NCC1(N2CCCCC2)CCCCC1)c1cccc([N+](=O)[O-])c1`, inactive: 4.6%.
Take `O=C(NCC1(N2CCOCC2)CCCCC1)c1cc(=O)[nH]c2ccccc12`: the inhibition is inactive: -3.1%.
For `COc1ccc(NC2CCN(C(=O)OC(C)(C)C)CC2)cc1` the value was inactive: -3%.
For `CN1CCN(CCOC(=O)C(O)(c2ccccc2)c2ccccc2)CC1` the value was inactive: -5.3%; for `COc1ccc(NC2CCN(CCc3ccccc3)CC2)c(OC)c1`, inactive: 1.3%.
For `COc1ccc(C(=O)NCC2(N3CCCCC3)CCCCC2)c(OC)c1OC` the value was inactive: 2.9%.
As to `O=C(OC1CN2CCC1CC2)C1c2ccccc2Oc2ccccc21` (stereo not given), the inhibition was inactive: 5.1%.
As for `CCOC(=O)N1CCC(Nc2ccc(OC)cc2)CC1`, the figure is inactive: 9.3%.
For `O=C(NCC1(N2CCOCC2)CCCCC1)c1cc2ccccc2o1` the value was inactive: -6.2%.
